Data: patent US20160052936A1, “SPIROINDOLINE DERIVATIVES FOR USE AS GONADOTROPIN-RELEASING HORMONE RECEPTOR ANTAGONISTS” (BAYER PHARMA AKTIENGESELLSCHAFT, priority 2013, published 2016)

The chains behind the UniProt entries cited, without tags or fusion partners.
UniProt P30968, whole entry: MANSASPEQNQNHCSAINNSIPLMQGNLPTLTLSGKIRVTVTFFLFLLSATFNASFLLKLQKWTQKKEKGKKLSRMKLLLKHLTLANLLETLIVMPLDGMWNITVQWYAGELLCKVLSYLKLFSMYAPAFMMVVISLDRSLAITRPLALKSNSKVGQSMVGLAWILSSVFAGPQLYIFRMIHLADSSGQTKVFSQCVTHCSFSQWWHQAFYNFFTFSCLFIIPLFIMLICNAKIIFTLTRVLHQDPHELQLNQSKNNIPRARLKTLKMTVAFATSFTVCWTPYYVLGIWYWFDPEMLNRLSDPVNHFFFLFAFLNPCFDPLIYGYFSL

Tests used:
human GnRH receptor = human GnRH receptor (Homo sapiens, UniProt P30968); test: IP-One HTRF assay with buserelin stimulation; type: cell-based
human GnRHR = human GnRHR (Homo sapiens, UniProt P30968); test: Tag-Lite receptor binding assay; conditions: read-out: Potency in receptor binding assay using TAG-LITE technology, given as IC50; Hek293 cells transiently transfected with human GnRHR; displacement of green-labelled GnRHR binding peptide

| SMILES | IC50 (human GnRH receptor) [nM] | IC50 (human GnRHR) [nM] |
| --- | --- | --- |
| N#Cc1ccc(S(=O)(=O)N2c3ccc(C(=O)NCc4ncc(C(F)(F)F)cc4F)cc3C3(CCS(=O)(=O)CC3)C2C2CC2)cc1 (centres unmarked) | > 20000 |  |
| NC(=O)c1ccc(S(=O)(=O)N2c3ccc(C(=O)NCc4ncc(C(F)(F)F)cc4Cl)cc3C3(CCS(=O)(=O)CC3)C2C2CC2)cc1 (centres unmarked) | 122 | 81.7 |
| O=C(NCc1ncc(C(F)(F)F)cc1Cl)c1ccc2c(c1)C1(CCS(=O)(=O)CC1)C(C1CC1)N2S(=O)(=O)c1ccc(OC(F)F)cc1 (centres unmarked) | 24 |  |
| O=C(NCc1ncc(C(F)(F)F)cc1F)c1ccc2c(c1)C1(CCS(=O)(=O)CC1)C(C1CC1)N2S(=O)(=O)c1ccc(Cl)cc1 (centres unmarked) | 1530 |  |
| Cc1cnc(CNC(=O)c2ccc3c(c2)C2(CCS(=O)(=O)CC2)C(C2CC2)N3S(=O)(=O)c2ccc(F)cc2)c(C(F)(F)F)c1 (single isomer, unassigned) [Example 5.1] | 606 |  |
| Cc1cnc(CNC(=O)c2ccc3c(c2)C2(CCS(=O)(=O)CC2)C(C2CC2)N3S(=O)(=O)c2ccc(F)cc2)c(C(F)(F)F)c1 (single isomer, unassigned) [Example 5.2] | 4250 |  |
| COc1cccc(S(=O)(=O)N2c3ccc(C(=O)NCc4ncc(C(F)(F)F)cc4F)cc3C3(CCS(=O)(=O)CC3)C2C2CC2)c1 (single isomer, unassigned) [Example 6.1] | 110 |  |
| COc1cccc(S(=O)(=O)N2c3ccc(C(=O)NCc4ncc(C(F)(F)F)cc4F)cc3C3(CCS(=O)(=O)CC3)C2C2CC2)c1 (single isomer, unassigned) [Example 6.2] | 3260 |  |
| O=C(NCc1ncc(C(F)(F)F)cc1F)c1ccc2c(c1)C1(CCS(=O)(=O)CC1)C(C1CC1)N2S(=O)(=O)c1cccc(OC(F)(F)F)c1 (single isomer, unassigned) [Example 11.1] | 262 |  |
| O=C(NCc1ncc(C(F)(F)F)cc1F)c1ccc2c(c1)C1(CCS(=O)(=O)CC1)C(C1CC1)N2S(=O)(=O)c1cccc(OC(F)(F)F)c1 (single isomer, unassigned) [Example 11.2] | > 20000 |  |
| O=C(NCc1ncc(C(F)(F)F)cc1F)c1ccc2c(c1)C1(CCS(=O)(=O)CC1)C(C1CC1)N2S(=O)(=O)c1cccc(OC(F)F)c1 (single isomer, unassigned) [Example 13.1] | 122 |  |
| O=C(NCc1ncc(C(F)(F)F)cc1F)c1ccc2c(c1)C1(CCS(=O)(=O)CC1)C(C1CC1)N2S(=O)(=O)c1cccc(OC(F)F)c1 (single isomer, unassigned) [Example 13.2] | > 20000 |  |
| O=C(NCc1ncc(C(F)(F)F)cc1Cl)c1ccc2c(c1)C1(CCS(=O)(=O)CC1)C(C1CC1)N2S(=O)(=O)c1cccc(OC(F)F)c1 (single isomer, unassigned) [Example 14.1] | 22 |  |
| O=C(NCc1ncc(C(F)(F)F)cc1Cl)c1ccc2c(c1)C1(CCS(=O)(=O)CC1)C(C1CC1)N2S(=O)(=O)c1cccc(OC(F)F)c1 (single isomer, unassigned) [Example 14.2] | 3950 |  |
| O=C(NCc1ncc(C(F)(F)F)cc1F)c1ccc2c(c1)C1(CCS(=O)(=O)CC1)C(C1CC1)N2S(=O)(=O)c1ccc(OC(F)F)cc1 (single isomer, unassigned) [Example 15.1] | 45 |  |
| O=C(NCc1ncc(C(F)(F)F)cc1F)c1ccc2c(c1)C1(CCS(=O)(=O)CC1)C(C1CC1)N2S(=O)(=O)c1ccc(OC(F)F)cc1 (single isomer, unassigned) [Example 15.2] | > 20000 |  |
